This test concerns the target γ-secretase (Homo sapiens, UniProt P49768). As to the kind of experiment: Aβ42 lowering in HEK-293 cells overexpressing APP (ELISA of conditioned medium). The format is cell-based. Conditions: read-out: Activity (EC50 for lowering Aβ42), in vitro. Background: In an ELISA, binding on a coated surface is turned into a signal by an enzyme label.

Where only a bound is given, the exact number is not on record here.

For orientation: EC50 means the concentration that produces a half-maximal response.

Consider `CC(C)CC(C(=O)O)c1cc(OCC2CC2)c(Cl)c(-c2ccc(C(F)(F)F)cc2)c1` (stereo not shown), for which the concentration giving a half-maximal response (EC50) was under 1 µM.

The values above are taken from patent US8664249B2, “Tetrasubstituted benzenes” (EnVivo Pharmaceuticals, Inc., priority 2007, dated 2014).
